From ChEMBL document CHEMBL1131916, “Novel series of O-substituted 8-quinolines and 4-benzothiazoles as potent antagonists of the bradykinin B2 receptors” (Bioorg Med Chem Lett, 1999)

Test system: B2 bradykinin receptor, Oryctolagus cuniculus
Experiment: % Inhibition of BK-induced (4x10E-8M) contraction of rabbit jugular vein (RJV) at 10E-5 M concentration

`Cc1nc2c(OCc3c(Cl)ccc(N(C)C(=O)CNC(=O)OCc4ccccc4)c3Cl)cccc2s1` was tested. Which inhibition did it give?
Its inhibition is 75%.

With `CCNC(=O)NCC(=O)N(C)c1ccc(Cl)c(COc2cccc3ccc(C)nc23)c1C#N` as the molecule, how does the inhibition read?
The inhibition was 66%.

How did the inhibition turn out when `Cc1ccc2cccc(OCc3c(Cl)ccc(N(C)C(=O)CNC(=O)NCCCCN)c3C#N)c2n1` was run?
The inhibition was 72%.

For `Cc1ccc2cccc(OCc3c(Cl)ccc(N(C)C(=O)CNC(=O)NCCCC(=O)O)c3C#N)c2n1`, which inhibition is on record?
Its inhibition is 80%.
